Patent US10238710B2, “Peptide having anti-inflammatory, osteogenic and hair growth promoting activities, and use of same” (CAREGEN CO., LTD., priority 2014, dated 2019)

Columns and labels:
osteoprotegerin (OPG) = test: RT-PCR of osteogenic differentiation marker OPG; type: cell-based, mouse; details: MC3T3-E1, three days
bone sialoprotein (BSP) = test: RT-PCR of osteogenic differentiation marker BSP; type: cell-based, mouse; details: MC3T3-E1, three days
[1] = system: alkaline phosphatase (ALP); details: MC3T3-E1, three days, RT-PCR

BMP2: positive control: 100 ng/ml BMP2 (Cell signaling) [reference compound]
increased: expression of osteoprotegerin (OPG) (osteoprotegerin (OPG)) | expression of bone sialoprotein (BSP) (bone sialoprotein (BSP)) | expression of alkaline phosphatase (ALP) [1]
